The results in this text go back to patent US7585941B2 (priority 2004, dated 2009).

The Ki is the equilibrium dissociation constant of an inhibitor or competing ligand from its target. A lower Ki goes with higher affinity.

Holding throughout (assay): biochemical
Holding throughout (type): binding

The target in assay [1] is hMOR-1Y (Homo sapiens, UniProt P35372).
The target of assay [2] is T1, hMOR-1(exons 1-3) (Homo sapiens, UniProt P35372).
T1 construct: A cDNA fragment containing only exons 1, 2 and 3 was also generated by PCR; expressed in transfected cells

The target in assay [3] is hMOR-1B1 (Homo sapiens, UniProt P35372).
Assay [4] concerns the target hMOR-1B2 (Homo sapiens, UniProt P35372).

As for `CC(C)C[C@@H](NC(=O)[C@H](Cc1ccccc1)NC(=O)CNC(=O)[C@@H](C)NC(=O)[C@@H](N)Cc1ccc(O)cc1)C(=O)O` [DADLE], the Ki in assay [1] came out at 6.5 ± 3 nM; in assay [2], 4.5 ± 1.5 nM; in assay [3], 3.6 ± 2.6 nM; in assay [4], 10 ± 5.9 nM.
